Test results reported in patent publication US20230365559A1, “NOVEL AMINOPYRIDINES AND THEIR USE IN TREATING CANCER” (priority 2020, published 2023).

Key:
UT-SCC-54C cells [1] = assay: Radiosensitisation of UT-SCC-54C HNSCC cells, clonogenic survival, oxic and anoxic (Table 18); assay type: cell-based, human; settings: no radiation
UT-SCC-54C cells [2] = assay: Radiosensitisation of UT-SCC-54C HNSCC cells, regrowth (sulforhodamine B) assay, oxic (Table 16); assay type: cell-based; settings: Homo sapiens

## COc1ccc(-n2c(=O)n(C)c3cnc(Nc4ccc(OC)cc4C)cc32)cc1 [Compound 195, 6-((4-Methoxy-2-methylphenyl)amino)-1-(4-methoxyphenyl)-3-methyl-1,3-dihydro-2H-imidazo[4,5-c]pyridin-2-one]
UT-SCC-54C cells [1]; 20% O2, compound conc 0.33 μM
  Plating efficiency drug/no drug: 1.08
UT-SCC-54C cells [1]; 20% O2, compound conc 1 μM
  Plating efficiency drug/no drug: 1.09
UT-SCC-54C cells [1]; 20% O2, compound conc 3 μM
  Plating efficiency drug/no drug: 1.14
UT-SCC-54C cells [2]
  IC50: > 10 µM
